Experimental data: publication PMC3522796 (Cancer letters, 2012)

Legend:
[1] = Stability of C22-PX formulations in PBS at 37°C; type: physicochemical; conditions: 48 h, 10 µg/ml
[2] = fresh 4T1 tumor homogenate, 37°C, 48 h, 10 µg/g tumor

## 2’-behenoyl-paclitaxel [Formulation C22-PX]
[1]
  C22-PX retained after incubation in PBS: ~ 30%
[2]
  PX derived, % of the total C22-PX added: 5–7%
Miglyol 808, 810, 812, 818, room temperature, 24 h
  Solubility in different Miglyols: 51–73 µg/mg Miglyol
Miglyol 812
  Increase of solubility in Miglyol 812 compared to PX: 25 fold
Different Miglyols, room temperature
  Increase of solubility in Miglyols compared to PX: 15–25 fold
Room temperature, 24 h
  Solubility in Miglyol 812: 72.5 ± 17.1 µg/mg Miglyol
